From patent publication US9302989B2 (priority 2010, dated 2016)

Amino acid sequences for entries named in this document (tags omitted). A change or cut given only in a name is not applied to a line headed by its entry.
UniProt P43490: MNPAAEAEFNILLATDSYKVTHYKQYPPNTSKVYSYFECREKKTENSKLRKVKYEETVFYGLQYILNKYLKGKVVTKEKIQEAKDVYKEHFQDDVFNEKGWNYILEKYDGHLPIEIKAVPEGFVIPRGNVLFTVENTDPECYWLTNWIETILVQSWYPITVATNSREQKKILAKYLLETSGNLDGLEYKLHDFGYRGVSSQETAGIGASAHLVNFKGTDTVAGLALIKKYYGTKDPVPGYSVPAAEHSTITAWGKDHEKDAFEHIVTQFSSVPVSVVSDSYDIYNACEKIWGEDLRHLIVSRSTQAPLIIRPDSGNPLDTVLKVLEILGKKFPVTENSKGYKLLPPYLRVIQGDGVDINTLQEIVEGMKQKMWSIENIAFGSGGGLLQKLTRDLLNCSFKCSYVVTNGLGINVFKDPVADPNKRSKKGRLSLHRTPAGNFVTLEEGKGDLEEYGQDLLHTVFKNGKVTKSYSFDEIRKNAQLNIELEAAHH

Biological target: NAMPT (Homo sapiens (Human), UniProt P43490)
Settings: read-out: TR-FRET Binding IC50 (μM) probe 1

## CC(C)CCNC(=O)c1ccc(NC(=O)N2Cc3cncnc3C2)cc1 [Example 430, N-(4-{[(3-methylbutyl)amino]carbonyl}phenyl)-5,7-dihydro-6H-pyrrolo[3,4-d]pyrimidine-6-carboxamide]
  IC50: 0.191 µM

## O=C(NCCCc1ccccc1)c1ccc(NC(=O)N2Cc3cncnc3C2)cc1 [Example 431, N-(4-{[(3-phenylpropyl)amino]carbonyl}phenyl)-5,7-dihydro-6H-pyrrolo[3,4-d]pyrimidine-6-carboxamide]
  IC50: 0.0607 µM

## Cc1ccc(C(=O)N2CC=C(c3ccc(NC(=O)N4Cc5ccccc5C4)cc3)CC2)cc1 [Example 432, N-{4-[1-(4-methylbenzoyl)-1,2,3,6-tetrahydropyridin-4-yl]phenyl}-1,3-dihydro-2H-isoindole-2-carboxamide]
  IC50: 0.00874 µM

## O=C(Nc1ccc(C2=CCN(Cc3ccccc3)CC2)cc1)N1Cc2ccccc2C1 [Example 433, N-[4-(1-benzyl-1,2,3,6-tetrahydropyridin-4-yl)phenyl]-1,3-dihydro-2H-isoindole-2-carboxamide]
  IC50: 0.00807 µM

## O=C(Nc1ccc(C(=O)N2CCN(CC3CCOC3)CC2)cc1)N1Cc2ccccc2C1 (stereo not shown) [Example 434, N-(4-{[4-(tetrahydrofuran-3-ylmethyl)piperazin-1-yl]carbonyl}phenyl)-1,3-dihydro-2H-isoindole-2-carboxamide]
  IC50: 0.0507 µM

## O=C(NC[C@@H]1CCCO1)c1ccc(NC(=O)N2Cc3ccc(F)cc3C2)cc1 [Example 435, 5-fluoro-N-[4-({[(2S)-tetrahydrofuran-2-ylmethyl]amino}carbonyl)phenyl]-1,3-dihydro-2H-isoindole-2-carboxamide]
  IC50: 0.00589 µM

## O=C(NC[C@H]1CCCO1)c1ccc(NC(=O)N2Cc3ccc(F)cc3C2)cc1 [Example 436, 5-fluoro-N-[4-({[(2R)-tetrahydrofuran-2-ylmethyl]amino}carbonyl)phenyl]-1,3-dihydro-2H-isoindole-2-carboxamide]
  IC50: 0.00933 µM

## O=C(N[C@H](CO)c1ccccc1)c1ccc(NC(=O)N2Cc3ccncc3C2)cc1 [Example 437, N-[4-({[(1S)-2-hydroxy-1-phenylethyl]amino}carbonyl)phenyl]-1,3-dihydro-2H-pyrrolo[3,4-c]pyridine-2-carboxamide]
  IC50: 0.008 µM

## COCCN1CCN(C(=O)c2ccc(NC(=O)N3Cc4ccccc4C3)cc2)CC1 [Example 438, N-(4-{[4-(2-methoxyethyl)piperazin-1-yl]carbonyl}phenyl)-1,3-dihydro-2H-isoindole-2-carboxamide]
  IC50: 0.6 µM

## O=C(Nc1ccc(C(=O)N2CCCC[C@H]2CCO)cc1)N1Cc2ccccc2C1 [Example 439, N-(4-{[(2S)-2-(2-hydroxyethyl)piperidin-1-yl]carbonyl}phenyl)-1,3-dihydro-2H-isoindole-2-carboxamide]
  IC50: 1.69 µM

## CCCNC(=O)c1ccc(NC(=O)N2Cc3ccc(-c4cccnc4)cc3C2)cc1 [Example 440, N-{4-[(propylamino)carbonyl]phenyl}-5-pyridin-3-yl-1,3-dihydro-2H-isoindole-2-carboxamide]
  IC50: 0.0355 µM

## CCCNC(=O)c1ccc(NC(=O)N2Cc3ccc(C(=O)NCCOC)cc3C2)cc1 [Example 442, N^5-(2-methoxyethyl)-N^2-{4-[(propylamino)carbonyl]phenyl}-1,3-dihydro-2H-isoindole-2,5-dicarboxamide]
  IC50: 0.0492 µM

## N#Cc1ccc(NC(=O)N2Cc3ccccc3C2)cc1 [Example 443, N-(4-cyanophenyl)-1,3-dihydro-2H-isoindole-2-carboxamide]
  IC50: 0.365 µM

## O=C(Nc1ccc(C(F)(F)F)cc1)N1Cc2ccccc2C1 [Example 444, N-[4-(trifluoromethyl)phenyl]-1,3-dihydro-2H-isoindole-2-carboxamide]
  IC50: 0.281 µM

## O=C(N[C@H](CO)c1ccccn1)c1ccc(NC(=O)N2Cc3ccncc3C2)cc1 [Example 445, N-[4-({[(1S)-2-hydroxy-1-pyridin-2-ylethyl]amino}carbonyl)phenyl]-1,3-dihydro-2H-pyrrolo[3,4-c]pyridine-2-carboxamide]
  IC50: 0.0141 µM

## CC(C)CCNC(=O)c1ccc(NC(=O)N2Cc3cccnc3C2)cc1 [Example 446, N-(4-{[(3-methylbutyl)amino]carbonyl}phenyl)-5,7-dihydro-6H-pyrrolo[3,4-b]pyridine-6-carboxamide]
  IC50: 0.011 µM

## O=C(NCC1CCOC1)c1ccc(NC(=O)N2Cc3cccnc3C2)cc1 (stereo not shown) [Example 447, N-(4-{[(tetrahydrofuran-3-ylmethyl)amino]carbonyl}phenyl)-5,7-dihydro-6H-pyrrolo[3,4-b]pyridine-6-carboxamide]
  IC50: 0.0466 µM

## O=C(Nc1ccc(C(=O)N2CCN(c3ccccn3)CC2)cc1)N1Cc2cccnc2C1 [Example 448, N-{4-[(4-pyridin-2-ylpiperazin-1-yl)carbonyl]phenyl}-5,7-dihydro-6H-pyrrolo[3,4-b]pyridine-6-carboxamide]
  IC50: 0.021 µM

## CCCNC(=O)c1ccc(NC(=O)N2Cc3ccc(C(O)CO)cc3C2)cc1 (stereo not shown) [Example 450, 5-(1,2-dihydroxyethyl)-N-{4-[(propylamino)carbonyl]phenyl}-1,3-dihydro-2H-isoindole-2-carboxamide]
  IC50: 1.03 µM

## CCCC(=O)N1CC=C(c2ccc(NC(=O)N3Cc4ccccc4C3)nc2)CC1 [Example 452, N-(1′-butyryl-1′,2′,3′,6′-tetrahydro-3,4′-bipyridin-6-yl)-1,3-dihydro-2H-isoindole-2-carboxamide]
  IC50: 0.0512 µM

## CC(C)C(=O)N1CC=C(c2ccc(NC(=O)N3Cc4ccccc4C3)nc2)CC1 [Example 453, N-(1′-isobutyryl-1′,2′,3′,6′-tetrahydro-3,4′-bipyridin-6-yl)-1,3-dihydro-2H-isoindole-2-carboxamide]
  IC50: 0.0527 µM

## O=C(Nc1ccc(C2=CCN(C(=O)[C@@H]3CCOC3)CC2)cn1)N1Cc2ccccc2C1 [Example 454, N-[1′-((3R)-tetrahydrofuran-3-ylcarbonyl)-1′,2′,3′,6′-tetrahydro-3,4′-bipyridin-6-yl]-1,3-dihydro-2H-isoindole-2-carboxamide]
  IC50: 0.0803 µM

## CC(=O)N1CCN(c2nc3cc(NC(=O)N4Cc5ccccc5C4)ccc3[nH]2)CC1 [Example 455, N-[2-(4-acetylpiperazin-1-yl)-1H-benzimidazol-5-yl]-1,3-dihydro-2H-isoindole-2-carboxamide]
  IC50: 12.2 µM

## CCC(C)C(=O)N1CC=C(c2ccc(NC(=O)N3Cc4ccccc4C3)cc2)CC1 (stereo not shown) [Example 459, N-{4-[1-(2-methylbutanoyl)-1,2,3,6-tetrahydropyridin-4-yl]phenyl}-1,3-dihydro-2H-isoindole-2-carboxamide]
  IC50: 0.00362 µM

## CCC(CC)C(=O)N1CC=C(c2ccc(NC(=O)N3Cc4ccccc4C3)cc2)CC1 [Example 460, N-{4-[1-(2-ethylbutanoyl)-1,2,3,6-tetrahydropyridin-4-yl]phenyl}-1,3-dihydro-2H-isoindole-2-carboxamide]
  IC50: 0.0193 µM

## CCOCC(=O)N1CC=C(c2ccc(NC(=O)N3Cc4ccccc4C3)cc2)CC1 [Example 462, N-{4-[1-(ethoxyacetyl)-1,2,3,6-tetrahydropyridin-4-yl]phenyl}-1,3-dihydro-2H-isoindole-2-carboxamide]
  IC50: 0.00694 µM

## CN(C)c1cccc(C(=O)N2CC=C(c3ccc(NC(=O)N4Cc5ccccc5C4)cc3)CC2)c1 [Example 477, N-(4-{1-[3-(dimethylamino)benzoyl]-1,2,3,6-tetrahydropyridin-4-yl}phenyl)-1,3-dihydro-2H-isoindole-2-carboxamide]
  IC50: 0.00996 µM

## Cc1cc(C(=O)N2CC=C(c3ccc(NC(=O)N4Cc5ccccc5C4)cc3)CC2)c(C)[nH]1 [Example 482, N-(4-{1-[(2,5-dimethyl-1H-pyrrol-3-yl)carbonyl]-1,2,3,6-tetrahydropyridin-4-yl}phenyl)-1,3-dihydro-2H-isoindole-2-carboxamide]
  IC50: 0.00511 µM

## O=C(Nc1ccc(C2=CCN(C(=O)c3cccnn3)CC2)cc1)N1Cc2ccccc2C1 [Example 489, N-{4-[1-(pyridazin-3-ylcarbonyl)-1,2,3,6-tetrahydropyridin-4-yl]phenyl}-1,3-dihydro-2H-isoindole-2-carboxamide]
  IC50: 0.0123 µM

## O=C1CC[C@@H](C(=O)N2CCN(c3ccc(NC(=O)N4Cc5ccccc5C4)cc3)CC2)N1 [Example 498, N-{4-[4-(5-oxo-L-prolyl)piperazin-1-yl]phenyl}-1,3-dihydro-2H-isoindole-2-carboxamide]
  IC50: 0.307 µM

## O=C1CC[C@H](C(=O)N2CCN(c3ccc(NC(=O)N4Cc5ccccc5C4)cc3)CC2)N1 [Example 499, N-{4-[4-(5-oxo-D-prolyl)piperazin-1-yl]phenyl}-1,3-dihydro-2H-isoindole-2-carboxamide]
  IC50: 0.806 µM

## CC(=O)N1CCC(C(=O)N2CCN(c3ccc(NC(=O)N4Cc5ccccc5C4)cc3)CC2)CC1 [Example 500, N-(4-{4-[(1-acetylpiperidin-4-yl)carbonyl]piperazin-1-yl}phenyl)-1,3-dihydro-2H-isoindole-2-carboxamide]
  IC50: 0.182 µM

## CS(=O)(=O)c1ccc(C(=O)N2CCN(c3ccc(NC(=O)N4Cc5ccccc5C4)cc3)CC2)cc1 [Example 502, N-(4-{4-[4-(methylsulfonyl)benzoyl]piperazin-1-yl}phenyl)-1,3-dihydro-2H-isoindole-2-carboxamide]
  IC50: 0.157 µM

## CCCC(=O)N1CCN(c2ccc(NC(=O)N3Cc4ccccc4C3)cc2)CC1 [Example 503, N-[4-(4-butyrylpiperazin-1-yl)phenyl]-1,3-dihydro-2H-isoindole-2-carboxamide]
  IC50: 0.0786 µM

## COCC(=O)N1CCN(c2ccc(NC(=O)N3Cc4ccccc4C3)cc2)CC1 [Example 507, N-{4-[4-(methoxyacetyl)piperazin-1-yl]phenyl}-1,3-dihydro-2H-isoindole-2-carboxamide]
  IC50: 0.186 µM

## O=C(Nc1ccc(N2CCN(C(=O)C3CCCO3)CC2)cc1)N1Cc2ccccc2C1 (stereo not shown) [Example 508, N-{4-[4-(tetrahydrofuran-2-ylcarbonyl)piperazin-1-yl]phenyl}-1,3-dihydro-2H-isoindole-2-carboxamide]
  IC50: 0.184 µM

## O=C(Nc1ccc(N2CCN(C(=O)C3CCOC3)CC2)cc1)N1Cc2ccccc2C1 (stereo not shown) [Example 509, N-{4-[4-(tetrahydrofuran-3-ylcarbonyl)piperazin-1-yl]phenyl}-1,3-dihydro-2H-isoindole-2-carboxamide]
  IC50: 0.211 µM
